System: THP-1
Experiment: Cytotoxicity against human THP1 cells after 6 days by Alamar blue assay
Assay type: cell-based

O=C(OCc1ccc([N+](=O)[O-])cc1)N(CCCl)CCCl
IC50: 64.8 µM
